Test results taken from patent US12491249B2, “Methods for manufacturing phthalocyanine dye conjugates and stable conjugates” (Rakuten Medical, Inc., priority 2015, dated 2025).

Legend:
head and neck cancer = experiment: Photoimmunotherapy of a subject with head and neck cancer (IV conjugate, then 690 nm light); type: in vivo; details: follow up Day 4
Method: The packaging of each vial containing the conjugate was opened and the contents of that vial were placed into a sterile IV bag. The process of opening each individual vial and placing the contents into the IV bag was repeated until the desired dose of conjugate for infusion was achieved. Each vial was opened separately and placed into the IV bag so as to reduce the exposure of the drug product to ambient room light. The process was performed in less than 15 min. The IV bag was covered at all times by an opaque sleeve to protect the conjugate from light exposure. After preparation, the IV bag was stored at 2-8° C.
The subject was administered the conjugate via IV infusion over 2 hours on Day 1. During the infusion, the lighting in the treatment room was less than 200 lux of fluorescent light. Any windows in the room were covered with shades. The IV bag was covered during the administration by an opaque sleeve to protect the conjugate from light exposure. Any light exposure was limited to less than 5 minutes.
To induce photoimmunotherapy, one light application of with a light having a wavelength of 690 nm was performed at 24 hours±2 h (Day 2) post conjugate administration.

BxPC3 cells = experiment: PIT killing of BxPC3 cells by light pre-exposed conjugate (CellTox Green); type: cell-based
THP1 cells = experiment: PIT killing of Fc receptor-expressing target cells; type: cell-based, Human; details: 500 ng/mL
Method: THP1 cells (ATCC, TIB-202) grown in complete RPMI 1640 medium were plated at 5000 cells in 100 μL total volume per well in a 96 well tissue culture plate for adherence overnight. The viability of the cells prior to plating was checked via trypan blue exclusion method and >95% cells were viable.
To induce killing, cells in each group were subjected to 690 nm laser light at a dose of 32 J/cm2. The controls represented wells corresponding to the groups described above but not treated with light. Cell killing was assessed using CellTox Green as described substantially as described Example 9. CellTox Green dye (1×) was added to the wells and cells were incubated for 24 hours at 37° C. in an incubator. The dye was also added to couple of wells just containing 100 μL of the medium for background subtraction later. After the incubation, the tissue culture plate was immediately read on a plate reader. […] The plate was then read again to obtain values for 100% cell death. For each read, the two background wells were averaged and their values subtracted from all other wells. In order to calculate the % cell death for each well, the background subtracted value from the first read was divided by the value from the second read (after lysis), and multiplied by 100.

S. aureus = experiment: PIT killing of bacterial cells, colony forming units; type: cell-based, Staphylococcus aureus; details: 100 μg/mL, 690 nm laser 300 J/cm^2, versus the other three groups
Method: The cells were then illuminated with a 690 nm laser at 0 or 300 J/cm^2. The number of remaining viable bacterial cells was determined by counting colony forming units (CFU) on BHI agar plates under the following conditions. As a control, the number of viable bacterial cells also was assessed in cells treated with cetuximab-IRDye 700DX incubation alone but without laser illumination, laser illumination alone, or untreated. Percent of viable CFU was normalized to bacterial cells with no treatment.

[1] = 160 mg/m^2 IV, 690 nm light at 24 hours

In the case of “Cetuximab-IRDye 700DX: Cetuximab (anti-EGFR antibody) conjugated with IRDye 700DX NHS ester phthalocyanine dye”, the “Response of treated tumors at follow up” value (head and neck cancer; 160 mg/m^2 IV over 2 hours Day 1, 690 nm light at 24 hours) is reported as “all treated tumors exhibited necrosis”, the Adverse effects (head and neck cancer; [1]) is reported as “no adverse effects” and the Pain (head and neck cancer; [1]) is reported as “did not report any pain”. The Skin photosensitivity (head and neck cancer; [1]) was “No skin photosensitivity was detected”, the “effect on cell death without PIT light” value (BxPC3 cells; all light pre-exposed samples, 1 μg/mL, 0 J/cm^2) was “no effect on cell death” and the “PIT potency after green light pre-exposure” value (BxPC3 cells; all lux-hour doses of green light evaluated, 690 nm 32 J/cm^2, 1 μg/mL) was “did not result in an effect in PIT potency”. The “PIT activity after white light pre-exposure” value (BxPC3 cells; pre-exposed to 3,000 Lux-Hours (500 lux for 6 hours) or more of white fluorescent light, 690 nm 32 J/cm^2, 1 μg/mL) was “less than 90%”, the cell killing (THP1 cells; 690 nm 32 J/cm^2) was “Maximum killing” and the “specificity of cell killing” value (THP1 cells; with or without Fc receptor blocking solution, 32 J/cm^2) was “Fc receptor-specific killing”. For the same substance, the “viable CFU” value (S. aureus) was “statistically significant CFU reduction”.
